The conditions of this experiment: after 6 weeks of the trial.

Take `Cc1cc2c(s1)Nc1ccccc1N=C2N1CCN(C)CC1` [olanzapine + placebo, olanzapine]: the “triglyceride level, endpoint” value amounted to 117.6±58.5.

The record behind these values is US20130217681A1, “METHOD AND COMPOSITION FOR WEIGHT-GAIN MANAGEMENT” (TECHNION RESEARCH AND DEVELOPMENT FOUNDATION LTD., priority 2010, published 2013).
